Earlier results in patent publication US20260174880A1, “ELECTROPHILIC REACTIVE LINKERS FOR LABELING OF POLYPEPTIDES AND METHODS OF USE THEREOF” (The Brigham and Women's Hospital, Inc., priority 2023, published 2026).

By UniProt entry, the sequences of proteins in these tests, tags left out.
UniProt P00519, whole entry: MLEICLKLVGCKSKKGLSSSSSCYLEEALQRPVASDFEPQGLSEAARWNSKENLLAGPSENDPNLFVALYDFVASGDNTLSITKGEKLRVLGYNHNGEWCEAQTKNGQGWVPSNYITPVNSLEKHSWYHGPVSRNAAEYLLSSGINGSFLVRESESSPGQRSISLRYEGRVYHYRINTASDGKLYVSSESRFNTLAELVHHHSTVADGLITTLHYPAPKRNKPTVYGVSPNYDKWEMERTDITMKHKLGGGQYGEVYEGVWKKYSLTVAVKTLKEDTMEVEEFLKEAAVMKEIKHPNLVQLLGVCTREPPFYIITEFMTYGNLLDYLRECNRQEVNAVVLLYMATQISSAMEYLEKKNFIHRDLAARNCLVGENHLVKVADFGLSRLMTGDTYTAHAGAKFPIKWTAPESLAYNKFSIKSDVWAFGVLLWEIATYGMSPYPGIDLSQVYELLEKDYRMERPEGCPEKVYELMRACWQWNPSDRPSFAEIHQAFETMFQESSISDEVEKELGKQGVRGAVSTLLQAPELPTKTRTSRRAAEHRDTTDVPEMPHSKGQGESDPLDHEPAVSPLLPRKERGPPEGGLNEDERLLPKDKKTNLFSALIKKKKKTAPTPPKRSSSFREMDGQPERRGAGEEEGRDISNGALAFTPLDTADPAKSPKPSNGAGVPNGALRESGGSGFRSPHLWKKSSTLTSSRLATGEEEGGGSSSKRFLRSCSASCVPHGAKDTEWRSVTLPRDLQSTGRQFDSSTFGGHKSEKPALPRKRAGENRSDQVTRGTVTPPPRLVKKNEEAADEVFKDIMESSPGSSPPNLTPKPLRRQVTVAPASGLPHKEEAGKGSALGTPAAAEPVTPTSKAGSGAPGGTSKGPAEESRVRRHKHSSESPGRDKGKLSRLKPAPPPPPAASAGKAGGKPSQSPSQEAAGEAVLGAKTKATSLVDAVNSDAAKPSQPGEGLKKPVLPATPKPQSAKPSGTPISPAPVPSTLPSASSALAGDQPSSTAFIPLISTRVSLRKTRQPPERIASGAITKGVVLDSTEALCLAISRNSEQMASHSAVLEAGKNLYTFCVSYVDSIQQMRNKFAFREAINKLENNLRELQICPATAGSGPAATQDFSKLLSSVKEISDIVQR

Target: ABL proto-oncogene 1, non-receptor tyrosine kinase (Homo sapiens, UniProt P00519)

pIC50: 6.7
SMILES: O=C(NCCO)c1cccc(-c2cc(Nc3ccc(OC(F)(F)F)cc3)ncn2)c1 [GNF-5]
